Experimental data as given in patent US8927545B2, “Inhibiting Eph B-3 kinase” (Duke University, priority 2009, dated 2015).

By UniProt entry, the sequences of proteins in these tests, tags left out. Residues count along the entry.
UniProt P54753, 633-896 limits assumed: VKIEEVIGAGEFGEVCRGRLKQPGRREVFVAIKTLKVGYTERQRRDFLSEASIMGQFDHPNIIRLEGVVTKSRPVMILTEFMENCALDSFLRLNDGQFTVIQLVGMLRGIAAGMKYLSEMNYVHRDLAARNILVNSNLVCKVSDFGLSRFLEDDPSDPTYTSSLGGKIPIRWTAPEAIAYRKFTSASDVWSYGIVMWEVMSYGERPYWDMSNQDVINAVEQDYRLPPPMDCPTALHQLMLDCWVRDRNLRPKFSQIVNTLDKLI

Biological target: recombinant human EphB3 kinase (Homo sapiens, UniProt P54753)
Experiment: IC50 for inhibiting EphB3 phosphorylation of the BTK peptide (33P radiometric assay, assay of Examples 1-6)
Type: biochemical
Details: inhibiting EphB3 phosphorylation of the BTK peptide (SEQ ID NO: 4)

| SMILES | IC50 (Table 1 pyrazolo[1,5-a]pyridine compounds) [µM] | IC50 (Table 2 candidate compounds) [µM] |
| --- | --- | --- |
| CS(=O)(=O)c1ccccc1NC(=O)c1cnn2ccccc12 | > 20 | – |
| O=C(Nc1ccccc1Cl)c1c[nH]c2ccccc12 | – | > 20 |
